Test: soluble on expression in E. coli; label from the status in PepcDB or PDB records

Sequence	soluble on expression in E. coli
GLLSILRKLKSAPDQEVRILLLGLDNAGKTTLLKQLASEDISHITPTQGFNIKSVQSQGFKLNVWDIGGQRKIRPYWRSYFENTDILIYVIDSADRKRFEETGQELTELLEEEKLSCVPVLIFANKQDLLTAAPASEIAEGLNLHTIRDRVWQIQSCSALTGEGVQDGMNWVCKNVNAKKK	soluble
KAKNLNGGLRRSVAPAAPTSSDFSPGDLVWAKMEGYPWWPSLVYNHPFDGTFIREKGKSVRVHVQFFDDSPTRGWVSKRLLKPYTGSKSKEAQKGGHFYSAKPEILRAMQRADEALNKDKIKRLELAVSDEPSE	soluble
MEEGGSTGSAGSDSSTSGSGGAQQRELERMAEVLVTGEQLRLRLHEEKVIKDRRHHLKTYPNCFVAKELIDWLIEHKEASDRETAIKLMQKLADRGIIHHVCDEHKEFKDVKLFYRFRKDDGTFPLDNEVKAFMRGQRLYEKLMSPENTLLQPREEEGVKYERTFMASEFLDWLVQEGEATTRKEAEQLCHRLMEHGIIQHVSSKHPFVDSNLLYQFRMNFRRRRRLMELLNEKSPSSQETHDSPFCLRKQSHDNRKSTSFMSVSPSKEIKIVSAVRRSSMSSCGSSGYFSSSPTLSSSPPVLCNPKSVLKRPVTSEELLTPGAPYARKTFTIVGDAVGWGFVVRGSKPCHIQAVDPSGPAAAAGMKVCQFVVSVNGLNVLHVDYRTVNNLILTGPRTIVMEVMEELEC	soluble
MRGSHHHHHHGSMSVSEIFVELQGFLAAEQDIREEIRKVVQSLEQTAREILTLLQGVHQGAGFQDIPKRCLKAREHFGTVKTHLTSLKTKFPAEQYYRFHEHWRFVLQRLVFLAAFVVYLETETLVTREAVTEILGIEPDREKGFHLDVEDYLSGVLILASELSRLSVNSVTAGDYSRPLHISTFINELDSGFRLLNLKNDSLRKRYDGLKYDVKKVEEVVYDLSIRGFNKETAAACVEK	soluble
MSSRGGKKKSTKTSRSAKAGVIFPVGRMLRYIKKGHPKYRIGVGAPVYMAAVLEYLTAEILELAVNAARDNKKGRVTPRHILLAVANDEELNQLLKGVTIASGGVLPNIHPELLAKKRGS	soluble
SASLLKVDQEVKLKVDSFRERITSEAEDLVANFFPKKLLELDSFLKEPILNIHDLTQIHSDMNLPVPDPILLTNSHDGLDGPTYKKRRLDECEEAFQGTKVFVMPNGMLKSNQQLVDIIEKVKPEIRLLIEKCNTVKMWVQLLIPRIEDGNNFGVSIQEETVAELRTVESEAASYLDQISRYYITRAKLVSKIAKYPHVEDYRRTVTEIDEKEYISLRLIISELRNQYVTLHDMILKNIEKIKRPRSSNAETLY	soluble

Source: the DeepSol protein solubility set
